Data taken from patent publication US20090088403A1, “A3 ADENOSINE RECEPTORS AS TARGETS FOR THE MODULATION OF CENTRAL SEROTONERGIC SIGNALING” (priority 2007, published 2009).

System: SERT
Assay: [3H]5-HT transport assay in mouse brain synaptosomes
Type: cell-based
Details: midbrain synaptosomes; inhibitor 10 min before IB-MECA; MRS1191 1 μM, DT-2 1.0 μM, H8 0.1 μM, SB203580 1.0 μM

SMILES: C[S+]([O-])c1ccc(-c2nc(-c3ccncc3)c(-c3ccc(F)cc3)[nH]2)cc1 (stereo not shown) [SB203580]
- effect on IB-MECA (10 nM) stimulated 5-HT uptake: blocked the effects of IB-MECA in stimulation of SERT activity
